Results from ChEMBL document CHEMBL1155009, “7-Aminopyrazolo[1,5-a]pyrimidines as potent multitargeted receptor tyrosine kinase inhibitors” (J Med Chem, 2008).

The chains behind the UniProt entries cited, without tags or fusion partners.
UniProt P35968, whole entry: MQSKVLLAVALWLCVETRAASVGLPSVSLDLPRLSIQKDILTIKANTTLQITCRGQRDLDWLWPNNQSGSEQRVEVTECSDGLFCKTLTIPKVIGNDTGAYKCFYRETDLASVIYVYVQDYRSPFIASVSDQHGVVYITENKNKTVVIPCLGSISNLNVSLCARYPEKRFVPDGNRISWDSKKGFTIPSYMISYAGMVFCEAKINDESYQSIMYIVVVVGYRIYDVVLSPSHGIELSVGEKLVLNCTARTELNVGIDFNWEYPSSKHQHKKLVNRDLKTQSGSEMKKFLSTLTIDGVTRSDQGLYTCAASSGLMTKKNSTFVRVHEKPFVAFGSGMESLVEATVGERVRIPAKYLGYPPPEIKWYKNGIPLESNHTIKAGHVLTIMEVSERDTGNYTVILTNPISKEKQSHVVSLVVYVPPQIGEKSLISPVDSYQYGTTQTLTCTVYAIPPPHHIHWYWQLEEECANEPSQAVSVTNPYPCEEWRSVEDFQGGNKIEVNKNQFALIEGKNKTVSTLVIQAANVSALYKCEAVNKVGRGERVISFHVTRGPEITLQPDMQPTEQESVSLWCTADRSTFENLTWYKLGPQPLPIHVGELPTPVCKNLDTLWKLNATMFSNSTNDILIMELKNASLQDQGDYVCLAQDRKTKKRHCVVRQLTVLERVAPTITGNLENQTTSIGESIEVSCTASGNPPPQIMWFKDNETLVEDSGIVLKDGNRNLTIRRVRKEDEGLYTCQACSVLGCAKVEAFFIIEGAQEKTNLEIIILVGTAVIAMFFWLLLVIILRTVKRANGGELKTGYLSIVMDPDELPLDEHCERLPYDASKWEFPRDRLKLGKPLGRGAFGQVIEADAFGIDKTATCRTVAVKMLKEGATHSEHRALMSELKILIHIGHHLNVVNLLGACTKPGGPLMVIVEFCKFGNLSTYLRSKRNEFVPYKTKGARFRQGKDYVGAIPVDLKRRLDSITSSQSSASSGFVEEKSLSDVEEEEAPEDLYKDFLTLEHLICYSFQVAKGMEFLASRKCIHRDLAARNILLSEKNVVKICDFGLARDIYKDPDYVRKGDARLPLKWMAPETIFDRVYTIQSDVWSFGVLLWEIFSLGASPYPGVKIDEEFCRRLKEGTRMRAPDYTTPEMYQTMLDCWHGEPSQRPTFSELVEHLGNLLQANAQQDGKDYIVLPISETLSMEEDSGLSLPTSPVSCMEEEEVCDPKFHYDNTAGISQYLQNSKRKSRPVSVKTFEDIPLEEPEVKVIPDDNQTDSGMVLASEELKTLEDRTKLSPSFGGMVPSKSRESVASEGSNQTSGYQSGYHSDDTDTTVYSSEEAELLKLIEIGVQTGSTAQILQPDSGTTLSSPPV

Molecular target: Vascular endothelial growth factor receptor 2 (Homo sapiens, UniProt P35968)

IC50: 185 nM
Compound: COc1ccc(-c2cnc3c(-c4ccsc4)cnn3c2)cc1
